Literature values as cited in patent US5767072A (priority 1993, dated 1998).

Conditions: in vivo; cited from earlier work

## HSA: human serum albumin, proposed carrier protein
  half-life in humans: 170 h
